Values quoted from earlier work in patent US20200268793A1, “METHODS AND COMPOSITIONS FOR ALLEVIATING CYTOKINE RELEASE SYNDROME” (MEMORIAL SLOAN-KETTERING CANCER CENTER, priority 2017, published 2020).

Test system: cognate murine receptor
Conditions: cytokines of human origin; cited from earlier work

| Molecule | Human on mouse (active on the cognate murine receptor) |
| --- | --- |
| IL-2: cytokine of human origin | Yes^39 |
| IL-3: cytokine of human origin (protein, UniProt P08700 20-152, looked up) Interleukin-3: APMTQTTPLKTSWVNCSNMIDEIITHLKQPPLPLLDFNNLNGEDQDILMENNLRRPNLEAFNRAVKSLQNASAIESILKNLLPCLPLATAAPTRHPIHIKDGDWNEFRRKLTFYLKTLENAQAQQTTLSLAIF | No^39 |
